# AlphaSeq binding of Ab-14 heavy chain variants to a spike HR2 peptide

The measurements come from Engelhart et al. 2022 (doi:10.1038/s41597-022-01779-4) through the FLAb antibody collection.

All variants were tested on one target, the spike HR2 peptide PDVDLGDISGINAS (SARS-CoV-2).

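The parent was found by panning a naive human phage display library on the peptide. AAYL49 was designed without a model: most single CDR substitutions and a random sample of double and triple ones. AlphaSeq pools MATa yeast showing the antibodies with MATalpha yeast showing the peptide. Binding brings cells together so that they mate, and sequencing counts the barcode pairs among the diploids. Read counts were normalised to the haploid input and turned into Kd by a linear fit to BCL2-family pairs of known affinity, for each replicate. The assay was run in three technical replicates.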

Parent scFv Ab-14: VH joined to VL by a (GGGGS)3 linker. Changes lie in the heavy chain CDRs alone.
VH: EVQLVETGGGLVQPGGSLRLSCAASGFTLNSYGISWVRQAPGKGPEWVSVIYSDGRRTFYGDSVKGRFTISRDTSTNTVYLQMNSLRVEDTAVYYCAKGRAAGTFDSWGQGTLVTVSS
VL: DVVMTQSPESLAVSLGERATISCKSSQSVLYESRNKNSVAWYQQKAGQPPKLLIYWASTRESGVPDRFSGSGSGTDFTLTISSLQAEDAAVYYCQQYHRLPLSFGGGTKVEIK

Substitutions are numbered in sequence along the VH above, starting at 1 (not Kabat). All variants listed here change F105 of the VH, counted from its first residue. Values are apparent Kd, the geometric mean of the replicates that gave a signal; lower means stronger binding. A pair that was not seen in any replicate is written "nd"; this usually means weak binding, but a binder can also be missed. Three control strains display no target. For library AAYL49, 15% of the pairings with them gave a signal, with a median of 11 µM and one signal in twenty below 680 nM, so weak values seen in few replicates may be background.

Variant L29K Y52M F105V showed nd (0 of 3 replicates). For S53P F105S, the assay gave 200 nM (3 of 3 replicates). Variant S53T R100D F105A gave 27 µM (2 of 3 replicates). With F59M G99R F105H the result was 30 µM (1 of 3 replicates). Variant L29Y Y60N F105S gave 4.7 µM (1 of 3 replicates). Variant V50I D54R F105V showed nd (0 of 3 replicates). For F105E, the assay gave 14 µM (3 of 3 replicates). With G33I V50T F105I the result was nd (0 of 3 replicates). For S53C S63C F105P, the assay gave 24 µM (2 of 3 replicates).

With G99E F105V the result was 22 nM (3 of 3 replicates). Variant I34V F105E gave 6.0 nM (3 of 3 replicates). For F27C G61V F105N, the assay gave nd (0 of 3 replicates). For Y52G R100H F105T, the assay gave 8.4 µM (2 of 3 replicates). For T28P S31L F105V, the assay gave 13 nM (3 of 3 replicates). With S31F R57N F105D the result was 8.1 µM (2 of 3 replicates). For F27S F105E D106T, the assay gave 220 nM (3 of 3 replicates). Variant A102C G103A F105I showed nd (0 of 3 replicates). Variant L29R T104I F105K gave nd (0 of 3 replicates).

Variant I51P R57F F105P gave 49 µM (1 of 3 replicates). For R56W T104S F105C, the assay gave 760 nM (2 of 3 replicates). With A101N G103W F105M the result was nd (0 of 3 replicates). Variant S53P T58D F105E showed nd (0 of 3 replicates). Variant L29P F105P gave nd (0 of 3 replicates). Variant T58E S63I F105E gave nd (0 of 3 replicates). For K65Y F105Q, the assay gave nd (0 of 3 replicates). For Y60R K65I F105C, the assay gave 6.3 µM (1 of 3 replicates). Variant I51L F59W F105P showed 1.8 µM (3 of 3 replicates).

With G55S G99V F105M the result was nd (0 of 3 replicates). With F27V F105C the result was 310 nM (3 of 3 replicates). With G61M K65S F105P the result was nd (0 of 3 replicates). With G33S I34R F105V the result was nd (0 of 3 replicates). For D62H A102C F105K, the assay gave nd (0 of 3 replicates). With G55T F105I S107Y the result was nd (0 of 3 replicates). With Y32D G61T F105H the result was nd (0 of 3 replicates). With I51D G103Q F105V the result was 58 µM (3 of 3 replicates). For G26R Y32W F105N, the assay gave nd (0 of 3 replicates).

Variant N30A S35Y F105A gave nd (0 of 3 replicates). With S35F A101E F105A the result was nd (0 of 3 replicates). For T28G Y52C F105Y, the assay gave nd (0 of 3 replicates).

7 of these entries, quoted again:

{"changes": "F27V F105C", "apparent Kd": "310 nM", "replicates with signal": "3 of 3"}
{"changes": "F27C G61V F105N", "apparent Kd": "nd", "replicates with signal": "0 of 3"}
{"changes": "L29K Y52M F105V", "apparent Kd": "nd", "replicates with signal": "0 of 3"}
{"changes": "G26R Y32W F105N", "apparent Kd": "nd", "replicates with signal": "0 of 3"}
{"changes": "D62H A102C F105K", "apparent Kd": "nd", "replicates with signal": "0 of 3"}
{"changes": "G33S I34R F105V", "apparent Kd": "nd", "replicates with signal": "0 of 3"}
{"changes": "S53T R100D F105A", "apparent Kd": "27 µM", "replicates with signal": "2 of 3"}

In this assay the parent's reference entry averaged 4.4 nM; its copy inside this library read 13 µM (one replicate of three).